Reference: PubChem BioAssay AID720700 (The Scripps Research Institute Molecular Screening Center, 2013)
The entries are a selection whose mix differs from that of the whole data set. Activity calls are given as the source filed them. Cut-off read from the data, not from the text of the source: active = inhibition above about 9.5%; inactive = the rest.

Chains of the proteins cited; added tags and fusions are not shown. Lines headed by an entry give the natural chain unless they say otherwise; changes in a name come on top.
UniProt P19174: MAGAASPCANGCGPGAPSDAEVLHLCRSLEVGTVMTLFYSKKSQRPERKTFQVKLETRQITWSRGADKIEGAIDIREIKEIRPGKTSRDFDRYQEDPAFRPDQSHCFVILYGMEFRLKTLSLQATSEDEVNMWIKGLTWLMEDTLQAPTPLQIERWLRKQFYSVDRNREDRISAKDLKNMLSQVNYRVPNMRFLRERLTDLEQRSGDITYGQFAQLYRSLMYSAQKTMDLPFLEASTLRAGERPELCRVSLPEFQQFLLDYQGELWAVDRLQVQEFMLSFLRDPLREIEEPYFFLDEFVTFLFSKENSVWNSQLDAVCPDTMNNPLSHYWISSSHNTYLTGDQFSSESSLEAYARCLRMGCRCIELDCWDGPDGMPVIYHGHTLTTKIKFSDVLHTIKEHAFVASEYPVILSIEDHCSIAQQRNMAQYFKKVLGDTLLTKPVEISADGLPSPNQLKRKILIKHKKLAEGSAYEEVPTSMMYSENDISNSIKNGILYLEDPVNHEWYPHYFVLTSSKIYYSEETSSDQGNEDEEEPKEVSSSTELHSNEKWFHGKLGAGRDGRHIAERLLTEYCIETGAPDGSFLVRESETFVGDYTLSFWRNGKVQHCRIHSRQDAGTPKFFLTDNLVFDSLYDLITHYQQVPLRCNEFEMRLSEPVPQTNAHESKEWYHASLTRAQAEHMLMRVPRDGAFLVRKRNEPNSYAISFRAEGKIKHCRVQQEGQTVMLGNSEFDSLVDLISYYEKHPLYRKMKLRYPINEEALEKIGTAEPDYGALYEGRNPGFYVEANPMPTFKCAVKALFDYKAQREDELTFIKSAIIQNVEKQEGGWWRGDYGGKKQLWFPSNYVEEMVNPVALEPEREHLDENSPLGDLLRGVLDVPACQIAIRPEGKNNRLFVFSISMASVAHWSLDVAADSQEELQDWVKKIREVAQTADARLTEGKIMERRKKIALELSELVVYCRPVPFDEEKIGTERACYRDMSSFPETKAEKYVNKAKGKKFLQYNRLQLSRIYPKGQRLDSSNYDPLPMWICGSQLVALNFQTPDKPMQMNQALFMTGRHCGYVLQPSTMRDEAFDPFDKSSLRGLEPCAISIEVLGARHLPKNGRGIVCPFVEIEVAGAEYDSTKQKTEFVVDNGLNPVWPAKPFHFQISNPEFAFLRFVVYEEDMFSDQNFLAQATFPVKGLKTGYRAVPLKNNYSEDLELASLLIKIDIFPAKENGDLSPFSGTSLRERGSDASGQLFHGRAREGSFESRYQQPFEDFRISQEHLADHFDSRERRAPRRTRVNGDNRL

biological target: 1-phosphatidylinositol 4,5-bisphosphate phosphodiesterase gamma-1 (Homo sapiens) (UniProt P19174); experiment: PLC-gamma1 enzyme inhibitors, primary screen, biochemical, fluorescence, purified enzyme (AID 720700); settings: purified PLC-gamma1, fluorogenic substrate, at 12.2 µM, active compounds read high

| Structure (SMILES) | inhibition |
| --- | --- |
| CCC(C)N(CC(C)C)C(=S)SC(NC(C)=O)C(Cl)(Cl)Cl (stereo not drawn) | inactive: 2.32% |
| O=C(OC1CN2CCC1CC2)c1cccc([N+](=O)[O-])c1 (stereo not drawn) | inactive: 2.58% |
| CCOC(=O)c1ccc(NC(=O)C(C)(CCl)SC)cc1 (stereo not drawn) | inactive: 4.13% |
| O=P1(N(CCCl)CCCl)Nc2ccccc2N1 | inactive: -17.9% |
| O=P1(N(CCCl)CCCl)OCCCN1CCCl (stereo not drawn) | inactive: 1.18% |
| COc1cc(I)ccc1[As](=O)(O)O | inactive: 7.3% |
| COc1ccc2nc(NP(=O)(c3ccccc3)c3ccccc3)sc2c1 | inactive: -0.33% |
| Cc1c2c(nc3ccccc13)SC(C(Cl)Cl)C2 (stereo not drawn) | inactive: -16.5% |
| Cc1cc(=O)[nH]c(N[N+](=O)[O-])n1 | inactive: -0.82% |
| O=C(OC1CN2CCC1CC2)C12CC3CC(CC(C3)C1)C2 (stereo not drawn) | inactive: 5.7% |
| O=[N+]([O-])c1cc(Oc2ccc([N+](=O)[O-])cc2C(F)(F)F)cc([N+](=O)[O-])c1 | inactive: 3.52% |
| COc1ccc(N/C(=N/P(=O)(N2CCOCC2)N2CCOCC2)N2CCOCC2)cc1 | inactive: 0.25% |
| Cc1ccc(OP(=O)(Nc2ccc([N+](=O)[O-])cn2)Oc2ccc(C)cc2)cc1 | inactive: 3.83% |
| [N-]=[N+]=NC1CCCCC1NC(=O)c1cc([N+](=O)[O-])cc([N+](=O)[O-])c1 (stereo not drawn) | inactive: 2.81% |
| Cc1ccc2nc3c(c(C)c2c1)CC(C(Cl)Cl)S3 (stereo not drawn) | inactive: -31.5% |
| COc1cc(C(=O)NCC2(N3CCOCC3)CCCCC2)ccc1OCC(C)C | inactive: 2.05% |
| O=[N+]([O-])c1ccc(-c2cc([N+](=O)[O-])c(O)c([N+](=O)[O-])c2)cc1 | inactive: 2.63% |
| O=[As](O)(c1ccc(O)cc1)c1ccccc1O | inactive: 1.04% |
| C[As](=O)(O)c1cccc(C(=O)O)c1 | inactive: 4.85% |
| O=C(OC1CN2CCC1CC2)c1cccc2[nH]cnc12 (stereo not drawn) | inactive: -2.14% |
| CCN(CC)C(=S)SC(NC=O)C(Cl)(Cl)Cl (stereo not drawn) | inactive: 0.16% |
| CC(C)NC(=O)NP(=O)(Oc1ccccc1)Oc1ccccc1 | inactive: 2.5% |
| ClCCSc1nnc(-c2cccnc2)o1 | inactive: 3.42% |
| CC(C)c1ccc(OP(=O)(Nc2ccccn2)Oc2ccccc2F)cc1 (stereo not drawn) | inactive: 0.84% |
| COC(=O)C1(C)COP(=O)(N2CCCCCC2)OC1 (stereo not drawn) | inactive: 0.89% |

| Structure (SMILES) | inhibition |
| --- | --- |
| O=C(O)COc1ccc([As](=O)(O)O)cc1[N+](=O)[O-] | inactive: -7.11% |
| Nc1ccccc1[As](=O)(O)c1ccccc1 | inactive: 0.93% |
| O=P(Nc1nccs1)(Oc1ccccc1)Oc1ccccc1 | inactive: -0.47% |
| CCOP1(=S)c2c(C)nn(CCC#N)c2N=C(c2ccccc2F)N1C (stereo not drawn) | inactive: -0.87% |
| CCOP1(=S)c2c(C)nn(CCC#N)c2N=C(c2ccc(F)cc2)N1C (stereo not drawn) | inactive: -2.04% |
| CN(C(=O)Cc1ccccc1)[C@@H]1CC[C@]2(CCCO2)C[C@H]1N1CCCC1 | inactive: -0.64% |
| N#CCCN(C(=O)COC(=O)C(O)(c1ccccc1)c1ccccc1)c1ccc(F)cc1 | inactive: 0.43% |
| CN(C(=O)Cc1ccc(Cl)c(Cl)c1)[C@H]1CC[C@@]2(CCCO2)C[C@@H]1N1CCCC1 | inactive: 0.88% |
| CN(C)C(=O)c1cc([N+](=O)[O-])cc2c1-c1c(cc([N+](=O)[O-])cc1[N+](=O)[O-])C2=O | inactive: 3.83% |
| O=[N+]([O-])c1ccc2c(c1)nnn2O | inactive: -0.28% |
| NC(=O)Nc1ccc([As](=O)(O)O)cc1 | inactive: 1.61% |
| O=[As](O)(c1cccc(O)c1)c1cccc(O)c1 | inactive: 1.65% |
| Cc1cccc(OCC(=O)OC2CN3CCC2CC3)c1 (stereo not drawn) | inactive: 2.83% |
| O=C(OC1CN2CCC1CC2)c1ccc(Cl)cc1 (stereo not drawn) | inactive: 3.6% |
| CS(=O)(=O)c1ccc(Cl)c(NC(=O)COC(=O)C(O)(c2ccccc2)c2ccccc2)c1 | inactive: 4.66% |
| COc1cc(C(=O)NCC2(N3CCOCC3)CCCCC2)cc(Cl)c1OC(C)C | inactive: 2.68% |
| O=[As](O)(O)c1cccnc1 | inactive: 0.66% |
| CCOP(=O)(Nc1cccc2ccccc12)OCC | inactive: -3.61% |
| COc1cc(C2NCCC3(OCCO3)C2(C)C)cc(OC)c1OC (stereo not drawn) | inactive: 2.51% |
| Nc1cccc2c([As](=O)(O)O)cccc12 | inactive: -151% |
| Cc1ccc(NCCc2c([N+](=O)[O-])cc([N+](=O)[O-])cc2[N+](=O)[O-])cc1 | inactive: 1.97% |
| CCCOP(=S)(Nc1nc(N)cc(=O)[nH]1)OCCC | inactive: 6.98% |
| CC(C)(C)C(=O)NC(Sc1ncccn1)C(Cl)(Cl)Cl (stereo not drawn) | inactive: 2% |
| Clc1n[nH]nc1-c1nn[nH][15n]1 | inactive: 5.53% |
| O=P1(N(CCCl)CCCl)NCCC(C(F)(F)F)O1 (stereo not drawn) | inactive: 3.58% |

| Structure (SMILES) | inhibition |
| --- | --- |
| CCOP(=O)(NC(=NC(C)c1ccccc1)NC(C)c1ccccc1)OCC (stereo not drawn) | inactive: -1.77% |
| CCC1=CC2Cc3nc4ccc(Cl)cc4c(N)c3C(C1)C2 (stereo not drawn) | inactive: -4.45% |
| O=P1(Nc2ccccn2)COc2ccccc2OC1 | inactive: 0.96% |
| CN(CCCl)Cc1cc(Cl)c(NC2=NCCN2)c(Cl)c1 | inactive: -0.33% |
| CCOP(=O)(Nc1ccc(C)cn1)OCC | inactive: -1.08% |
| CN(C(=O)Cc1ccc(Cl)c(Cl)c1)C1CCCC[C@@H]1N1CCCC1 (stereo partly drawn) | inactive: 3.24% |
| CN(C(=O)Cc1ccc(Cl)c(Cl)c1)[C@@H]1CCCC[C@H]1N1CCCC1 | inactive: 0.09% |
| CC(C)/C=N\N=C(\N)N[N+](=O)[O-] | inactive: 0.44% |
| CC1(CBr)Cn2c(nc3ccccc3c2=O)S1 (stereo not drawn) | inactive: -0.72% |
| COc1ccccc1CNC(=O)COC(=O)C(O)(c1ccccc1)c1ccccc1 | inactive: 3.19% |
| CN(C)C1(CNC(=O)c2ccc(S(C)(=O)=O)cc2)CCCCC1 | inactive: 0.28% |
| CCCC1OP(=O)(Nc2ccccc2)OCC1CC (stereo not drawn) | inactive: 3.58% |
| O=C(/C=C/c1ccccc1)OC1CN2CCC1CC2 (stereo not drawn) | inactive: 2% |
| Cc1ccc(C(=O)OC2CN3CCC2CC3)cc1 (stereo not drawn) | inactive: -0.97% |
| CC1CCC(C(C)C)C(OP(=O)(Nc2ccccn2)c2ccccc2)C1 (stereo not drawn) | inactive: 2.32% |
| Cc1nn(-c2ccccc2)c2c1P(=O)(N1CCOCC1)N(C)C(c1ccccc1)=N2 (stereo not drawn) | inactive: 0.43% |
| Nc1cccc([As](=O)(O)c2ccccc2)c1 | inactive: 5.14% |
| NS(=O)(=O)c1cccc(NC(=O)COC(=O)C(O)(c2ccccc2)c2ccccc2)c1 | inactive: 3.56% |
| O=P1(Nc2ccc(Br)cn2)COc2ccccc2OC1 | inactive: 2.99% |
| O=[As](O)(c1cccs1)c1cccs1 | inactive: -0.49% |
| Cc1ccc(OCC(=O)OC2CN3CCC2CC3)cc1 (stereo not drawn) | inactive: 1.47% |
| Cc1ccc(S(=O)(=O)N(CCCN)CCCc2c(C)nc(N)[nH]c2=O)cc1 | inactive: 3.46% |
| O=P1(Nc2ncccn2)COc2ccccc2OC1 | inactive: -0.69% |
